# Values of other authors, collected in paper PMC11655904, “[^89Zr]Zr-DFO-TOC: a novel radiopharmaceutical for PET imaging of somatostatin receptor positive neuroendocrine tumors” (EJNMMI Radiopharmacy and Chemistry, 2024).
# Conditions: stated in the discussion, no reference given; cited from earlier work
# Text: Significant progress has been made in recent years towards understanding the underlying biology and molecular pathways involved with NETs, particularly the role of somatostatin receptors (SSTRs) and their downstream pathways. SSTRs (SSTR1, 2 A/2B, 3, 4, and 5) belong to a family of G protein-coupled receptors with seven transmembrane-spanning proteins that bind the cyclic peptide somatostatin (SST) (Theodoropoulou and Stalla [2013]). SST regulates cell growth and inhibits hormone secretion in the endocrine and exocrine systems (Brereton et al. [2015]; Ampofo et al. [2020]).
substance,measurement,value
octreotide,biological half-life,90 min
